# Source: PubChem BioAssay AID504708 (Sanford-Burnham Center for Chemical Genomics, 2011)
# Chains of the proteins cited; added tags and fusions are not shown.
# UniProt Q2TB90, whole entry: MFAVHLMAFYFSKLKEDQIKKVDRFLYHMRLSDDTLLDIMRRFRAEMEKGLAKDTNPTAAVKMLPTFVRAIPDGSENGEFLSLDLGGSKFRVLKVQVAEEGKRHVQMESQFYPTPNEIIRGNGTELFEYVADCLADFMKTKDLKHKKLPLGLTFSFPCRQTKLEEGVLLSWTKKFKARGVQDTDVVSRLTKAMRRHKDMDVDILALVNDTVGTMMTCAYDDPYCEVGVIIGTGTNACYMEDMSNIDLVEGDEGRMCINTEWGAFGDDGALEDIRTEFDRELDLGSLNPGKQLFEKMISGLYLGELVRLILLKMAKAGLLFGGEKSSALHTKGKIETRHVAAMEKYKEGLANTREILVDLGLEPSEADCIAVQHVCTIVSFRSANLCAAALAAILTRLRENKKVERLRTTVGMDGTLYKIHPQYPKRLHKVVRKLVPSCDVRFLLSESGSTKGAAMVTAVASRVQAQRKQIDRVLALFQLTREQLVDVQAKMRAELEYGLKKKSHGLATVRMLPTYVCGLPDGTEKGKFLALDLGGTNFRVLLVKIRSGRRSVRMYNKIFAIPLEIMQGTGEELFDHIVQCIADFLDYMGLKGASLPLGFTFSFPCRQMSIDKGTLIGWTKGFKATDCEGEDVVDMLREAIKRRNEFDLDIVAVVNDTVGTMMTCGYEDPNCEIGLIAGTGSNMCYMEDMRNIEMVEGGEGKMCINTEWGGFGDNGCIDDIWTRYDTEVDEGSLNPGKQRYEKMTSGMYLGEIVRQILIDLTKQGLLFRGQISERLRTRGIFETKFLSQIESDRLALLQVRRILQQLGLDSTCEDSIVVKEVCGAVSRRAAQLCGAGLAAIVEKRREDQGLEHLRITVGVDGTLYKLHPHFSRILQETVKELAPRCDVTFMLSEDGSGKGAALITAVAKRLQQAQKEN
# The entries are a selection whose mix differs from that of the whole data set. Active and inactive are the calls of the source.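 Rule for the calls: active = inhibition at or below a set negative limit, negative inhibition meaning the enzyme was activated; inactive = the rest.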
# Molecular target: Hexokinase HKDC1 (Homo sapiens) (UniProt Q2TB90)
# Test: compounds raising human HKDC1 activity – biochemical, single concentration, confirmation (AID 504708)
# Conditions: recombinant HKDC1, G6PDH/diaphorase resazurin fluorescence; at 20 µM; active compounds read low
compound,measurement,value
CC1=C2N=C(C=C3N=C(C(C)=C4[N-][C@@](C)([C@@H]5N=C1[C@](C)(CCC(=O)NC[C@@H](C)OP(=O)([O-])O[C@H]1[C@@H](O)[C@@H](n6cnc7cc(C)c(C)cc76)O[C@@H]1CO)[C@H]5CC(N)=O)[C@@](C)(CC(N)=O)[C@@H]4CCC(N)=O)[C@@](C)(CC(N)=O)[C@@H]3CCC(N)=O)C(C)(C)[C@@H]2CCC(N)=O.[C-]#N.[Co+3],inhibition,inactive: -36.7%
